Data: PubChem BioAssay AID602449 (Sanford-Burnham Center for Chemical Genomics, 2012)
The entries are a selection whose mix differs from that of the whole data set. The source made the active and inactive calls.

Experiment: mitochondrial permeability transition pore inhibitors, primary screen, biochemical, isolated mouse mitochondria, absorbance (AID 602449);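 note: 0% = DMSO wells given calcium and 100% = 1 mM EGTA wells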
Details: Ca2+ swelling absorbance, 30 min, at 10 µM, stronger effect = higher value

Row | Compound | inhibition
1 | CN1CCC(Nc2cccc(F)c2)CC1 | inactive: -1.3%
2 | O=C(NCC1(N2CCCCC2)CCCCC1)c1cncc(Br)c1 | inactive: -0.2%
3 | COc1ccc(C(c2nnnn2C2CCCC2)N2CCC(n3c(=O)[nH]c4ccccc43)CC2)cc1 (stereo unspecified) | inactive: 0.4%
4 | Cc1ccc(C(=O)NCC2(N(C)C)CCCCC2)o1 | inactive: 0.1%
5 | CCCOc1ccc(C(=O)NCC2(N(C)C)CCCCC2)cc1OC | inactive: -1.3%
6 | CCCCn1nnnc1C(c1ccccc1OC(F)(F)F)N1CCC(n2c(=O)[nH]c3ccccc32)CC1 (stereo unspecified) | inactive: 0%
7 | CC(C)c1ccc(NC2CCN(C(=O)OC(C)(C)C)CC2)cc1 | inactive: 4.2%
8 | COc1ccc(CN(CCCl)CCCl)cc1Cl | inactive: 0.2%
9 | CN(C)c1cccc(C(=O)NCC2(N3CCCCC3)CCCCC2)c1 | inactive: -0.4%
10 | COc1cc(OC)c(C(=O)NCC2(N(C)C)CCCCC2)cc1OC | inactive: -0.3%
11 | CCC(c1nnnn1C(C)(C)C)N1CCC(n2c(=O)[nH]c3ccccc32)CC1 (stereo unspecified) | inactive: -1.4%
12 | O=C(NCC1(N2CCOCC2)CCCCC1)c1cc(F)c(F)cc1Cl | inactive: -0.5%
13 | CCCCn1nnnc1C(c1ccnc2ccccc12)N1CCC(n2c(=O)[nH]c3ccccc32)CC1 (stereo unspecified) | inactive: -1.3%
14 | O=C(NCC1(N2CCCCC2)CCCCC1)c1cccc(C(F)(F)F)c1 | inactive: 2%
15 | O=C(NCC1(N2CCOCC2)CCCCC1)c1cc(=O)[nH]c2ccccc12 | inactive: 1.1%
16 | COc1cc(C(=O)NCC2(N3CCCCC3)CCCCC2)ccc1OC(F)F | inactive: 0.2%
17 | CC(C)c1ccc(C(=O)NCC2(N3CCOCC3)CCCCC2)cc1 | inactive: -2.3%
18 | COc1ccc(NC2CCN(C(=O)OC(C)(C)C)CC2)cc1 | inactive: -1.4%
19 | CN1CCN(CCOC(=O)C(O)(c2ccccc2)c2ccccc2)CC1 | inactive: 0.6%
20 | CCCCn1nnnc1C(c1cccc2ccccc12)N1CCC(n2c(=O)[nH]c3ccccc32)CC1 (stereo unspecified) | inactive: -0.6%
21 | CC(C)(C)n1nnnc1C(c1ccccc1OC(F)(F)F)N1CCC(n2c(=O)[nH]c3ccccc32)CC1 (stereo unspecified) | inactive: 1.9%

Row | Compound | inhibition
22 | O=C(NCC1(N2CCCCC2)CCCCC1)c1ccc(OC(F)F)cc1 | inactive: -0.4%
23 | CCN1CCC(Nc2ccc(Cl)cc2)CC1 | inactive: 0.5%
24 | O=c1[nH]c2ccccc2n1C1CCN(C(c2ccccc2OC(F)(F)F)c2nnnn2C2CCCC2)CC1 (stereo unspecified) | inactive: -0.1%
25 | N#CC1(Nc2ccccc2)CCN(CCc2ccccc2)CC1 | inactive: -2.4%
26 | O=C(NCC1(N2CCCCC2)CCCCC1)c1cccc([N+](=O)[O-])c1 | inactive: -3.3%
27 | CSc1ccc(C(=O)NCC2(N3CCOCC3)CCCCC2)cc1 | inactive: -1.1%
28 | O=c1[nH]c2ccccc2n1C1CCN(C(c2ccccc2)c2nnnn2C2CCCCC2)CC1 (stereo unspecified) | inactive: -1.4%
29 | CCOC(=O)N1CCC(Nc2cccc(C)c2)CC1 | inactive: 0%
30 | COc1cc(C(=O)NCC2(N(C)C)CCCCC2)ccc1OC(F)F | inactive: 0%
31 | O=c1[nH]c2ccccc2n1C1CCN(C(c2cccc3ccccc23)c2nnnn2C2CCCC2)CC1 (stereo unspecified) | inactive: 0.6%
32 | CC(C)(C)n1nnnc1C(c1ccccc1)N1CCC(n2c(=O)[nH]c3ccccc32)CC1 (stereo unspecified) | inactive: -0.7%
33 | O=C1CCN(Cc2ccccc2)CC1 | inactive: 0.8%
34 | CCOc1ccc(C)cc1CN(CCCl)CCCl | inactive: 2%
35 | CCCCOc1ccc(C(=O)NCC2(N3CCOCC3)CCCCC2)cc1 | inactive: -1.6%
36 | CCCCn1nnnc1C(c1cc2ccccc2o1)N1CCC(n2c(=O)[nH]c3ccccc32)CC1 (stereo unspecified) | inactive: -0.6%
37 | O=P1(N(CCCl)CCCl)SCCCS1 | inactive: 0.1%
38 | O=C(NCC1(N2CCCCC2)CCCCC1)c1ccc(F)cc1 | inactive: -2.2%
39 | CCOC(=O)N1CCC(Nc2ccc(F)cc2)CC1 | inactive: 0.2%
40 | COc1ccc(NC2CCN(CCc3ccccc3)CC2)c(OC)c1 | inactive: -0.2%
41 | O=C(NCC1(N2CCCCC2)CCCCC1)c1ccc(Cl)nc1 | inactive: -2.1%
42 | O=c1[nH]c2ccccc2n1C1CCN(C(c2ccccc2OC(F)(F)F)c2nnnn2C2CCCCC2)CC1 (stereo unspecified) | inactive: -0.1%

Row | Compound | inhibition
43 | Cc1cc(C)cc(N(C(=O)c2ccccc2)C2CCN(C(=O)OC(C)(C)C)CC2)c1 | inactive: 0.1%
44 | O=C(NCC1(N2CCOCC2)CCCCC1)c1cc2ccccc2o1 | inactive: -3.1%
45 | O=C(NCC1(N2CCCCC2)CCCCC1)c1ccc(Cl)s1 | inactive: -2.4%
46 | N#CC1(Nc2ccccc2)CCN(Cc2ccccc2)CC1 | inactive: 0.7%
47 | O=c1[nH]c2ccccc2n1C1CCN(C(c2cc3ccccc3o2)c2nnnn2C2CCCCC2)CC1 (stereo unspecified) | inactive: 2.2%
48 | O=C(OC1CN2CCC1CC2)C1c2ccccc2Oc2ccccc21 (stereo unspecified) | inactive: -1.3%
49 | COc1ccc(Cl)cc1C(=O)NCC1(N2CCOCC2)CCCCC1 | inactive: -0.1%
50 | CCOC(=O)N1CCC(Nc2ccc(OC)cc2)CC1 | inactive: 1.8%
51 | CCCCn1nnnc1C(c1ccc(OC)cc1)N1CCC(n2c(=O)[nH]c3ccccc32)CC1 (stereo unspecified) | inactive: -0.2%
52 | COc1ccc(C(=O)NCC2(N3CCCCC3)CCCCC2)cc1 | inactive: -2.1%
53 | CC(C)(C)OC(=O)N1CCC(N(C(=O)c2ccccc2)c2ccc(F)cc2)CC1 | inactive: 1.4%
54 | COc1ccc(C(=O)NCC2(N3CCCCC3)CCCCC2)c(OC)c1OC | inactive: -1.1%
55 | CCC(c1nnnn1C1CCCC1)N1CCC(n2c(=O)[nH]c3ccccc32)CC1 (stereo unspecified) | inactive: -0.3%
56 | O=C(NCC1(N2CCCCC2)CCCCC1)c1ccc(=O)[nH]c1 | inactive: -1.3%
57 | O=C(NCC1(N2CCCCC2)CCCCC1)c1cccs1 | inactive: 0.5%
58 | CCCCn1nnnc1C(CC)N1CCC(n2c(=O)[nH]c3ccccc32)CC1 (stereo unspecified) | inactive: 1.4%
59 | CCCCn1nnnc1C(c1cccs1)N1CCC(n2c(=O)[nH]c3ccccc32)CC1 (stereo unspecified) | inactive: -1.2%
60 | CSc1ccccc1C(=O)NCC1(N2CCCCC2)CCCCC1 | inactive: -0.9%
61 | Cc1cccc(NC2(C#N)CCN(Cc3ccccc3)CC2)c1 | inactive: -1%
